# Values quoted from earlier work in US20050148552A1, “Methods of treating eczema” (priority 2003, published 2005).
# Settings: in vivo
substance,measurement,value
tetracycline pyrazole [CMT-5],biodistribution,limited biodistribution
